Reference: US8741576B2, “Heteroclitic analogs and related methods” (Epimunne Inc., priority 1999, dated 2014)

Key:
[1] = system: CEA.691- and MAGE3.112-specific CTL lines; assay: Th2 cytokine (IL10/IL5) production by human CTL lines, ELISA; type: cell-based
[2] = system: CEA.691- and MAGE3.112-specific CTL lines; assay: IFNγ release (in situ capture ELISA) from human CTL lines with peptide-pulsed .221A2.1 APC; conditions: for peptide dose giving significant IFNγ release (>100 pg/well): dose titration; for Th1 cytokines: minimum peptide concentration required to induce 100 pg/well of IFNγ: human CTL lines
[3] = system: MAGE2.157-, HBV Pol.455- and HIV Pol.476-specific CTL lines; assay: IFNγ release (in situ capture ELISA) from murine CTL lines with peptide-pulsed .221A2.1 APC; type: cell-based, HLA-A2.1/K^bxs transgenic mice
HLA-B7 (B*0702) = HLA-B7 (B*0702) (Homo sapiens, UniProt P01889); assay: HLA-B7 (B*0702) peptide binding, competition with radiolabeled SS 5-13a (L7→Y) peptide
[4] = system: MAGE2.170-specific CTL line; assay: IFNγ release (ELISA) from human MAGE2.170-specific CTL line with GM3107 cells as APC; type: cell-based; conditions: 0.01 μg/ml peptide dose
[5] = system: p53.149M2- and p53mu.184-specific CTL; assay: IFNγ release from CTL specific for p53 epitopes (p53.149M2, p53mu.184); type: cell-based; conditions: for fold lower concentration than wildtype peptide inducing significant IFNγ production / IFNγ release at suboptimal dose: p53.149M2 CTL; for immunogenicity relative to wildtype p53mu.184: IFNγ production
p53.149M2-specific CTL = assay: IL10 production by p53.149M2-specific CTL; type: cell-based; conditions: p53.149M2 CTL
HLA-A2.1 (human) = HLA-A2.1 (human) (UniProt P04439)
[6] = system: p53.261 epitope-reactive CTL; assay: Immunization of HLA-A2.1/K^bxd transgenic mice with p53.261 or analogs, IFNγ in situ ELISA of restimulated CTL; type: in vivo; conditions: for peptide concentration giving IFNγ production of 100 pg/well, compared to CTL induced and expanded with wildtype peptide: CTL expanded in vitro with the immunizing analog; for fold lower dose of wildtype peptide to induce 100 pg/well of IFNγ: immunized with analog, stimulated and tested in vitro with wildtype peptide
[7] = system: Meth A/A2.1K^b tumor cells; assay: IFNγ release of analog-induced CTL against endogenously processed p53.261 on Meth A tumor cells; type: cell-based, mouse; conditions: Meth A/A2.1K^b clone vs parental Meth A
[8] = system: wildtype p53.261 peptide-reactive CTL; assay: Elispot precursor frequency of wildtype-reactive CD8+ cells from immunized mice; type: in vivo; conditions: CD8+ cells stimulated with WT peptide

CC[C@H](C)[C@H](N)C(=O)N[C@@H](CCSC)C(=O)N[C@H](C(=O)NCC(=O)N[C@@H](Cc1c[nH]cn1)C(=O)N[C@@H](CC(C)C)C(=O)N[C@H](C(=O)NCC(=O)N[C@H](C(=O)O)C(C)C)C(C)C)[C@@H](C)CC [CEA.691 H5]
Th2 cytokines: minimum peptide concentration required to induce 50 pg/ml of IL10 or IL15 [1]: 10^−1 μg/ml | peptide dose giving significant IFNγ release (>100 pg/well) [2]: 0.01 ng/mL | Th1 cytokines: minimum peptide concentration required to induce 100 pg/well of IFNγ [2]: 10^−7 μg/ml

CC[C@H](C)[C@H](N)C(=O)N[C@@H](CCSC)C(=O)N[C@@H](CCSC)C(=O)NCC(=O)N[C@H](C(=O)N[C@@H](CC(C)C)C(=O)N[C@H](C(=O)NCC(=O)N[C@H](C(=O)O)C(C)C)C(C)C)C(C)C [CEA.691 M3]
Th2 cytokines: minimum peptide concentration required to induce 50 pg/ml of IL10 or IL15 [1]: 1 µg/mL | peptide dose giving significant IFNγ release (>100 pg/well) [2]: 0.01 ng/mL | Th1 cytokines: minimum peptide concentration required to induce 100 pg/well of IFNγ [2]: 10^−5 μg/ml | fold increase in potency of IFNγ release compared to wildtype peptide ([2]; molar basis): 100,000 fold

CC(C)C[C@H](NC(=O)[C@H](CCCNC(=N)N)NC(=O)[C@@H]1CCCN1C(=O)[C@@H](NC(=O)[C@H](Cc1ccc(O)cc1)NC(=O)[C@H](CCCNC(=N)N)NC(=O)[C@H](CO)NC(=O)[C@H](CC(C)C)NC(=O)CN)C(C)C)C(=O)O [HBV Pol.455 P7]
Th1 cytokines: minimum peptide concentration required to induce 100 pg/well of IFNγ [3]: 10^−2 μg/ml

CC[C@H](C)[C@H](N)C(=O)N[C@@H](CC(C)C)C(=O)N[C@@H](Cc1c[nH]cn1)C(=O)N[C@@H](CCC(=O)O)C(=O)N1CCC[C@H]1C(=O)N[C@H](C(=O)N[C@@H](Cc1c[nH]cn1)C(=O)NCC(=O)N[C@H](C(=O)O)C(C)C)C(C)C [HIV Pol.476 H3]
Th1 cytokines: minimum peptide concentration required to induce 100 pg/well of IFNγ [3]: 1 µg/mL

CC[C@H](C)[C@H](NC(=O)CNC(=O)[C@H](Cc1ccccc1)NC(=O)[C@H](Cc1ccccc1)NC(=O)[C@H](CC(C)C)NC(=O)[C@H](CCC(N)=O)NC(=O)[C@H](CC(C)C)NC(=O)[C@@H](N)Cc1ccc(O)cc1)C(=O)N[C@@H](CCC(=O)O)C(=O)N[C@H](C(=O)O)C(C)C [MAGE2.157 F5]
Th1 cytokines: minimum peptide concentration required to induce 100 pg/well of IFNγ [3]: 10^−2 μg/ml

CC[C@H](C)[C@H](NC(=O)CNC(=O)[C@H](Cc1ccccc1)NC(=O)[C@@H](NC(=O)[C@H](CC(C)C)NC(=O)[C@H](CCC(N)=O)NC(=O)[C@H](CC(C)C)NC(=O)[C@@H](N)Cc1ccc(O)cc1)[C@@H](C)CC)C(=O)N[C@@H](CCC(=O)O)C(=O)N[C@H](C(=O)O)C(C)C [MAGE2.157 I5]
Th1 cytokines: minimum peptide concentration required to induce 100 pg/well of IFNγ [3]: 10^−4 μg/ml

CC[C@H](C)[C@H](NC(=O)[C@H](CC(=O)O)NC(=O)[C@H](CC(C)C)NC(=O)[C@H](Cc1c[nH]cn1)NC(=O)[C@H](CO)NC(=O)[C@@H](NC(=O)[C@@H]1CCCN1C(=O)[C@@H](N)C(C)C)[C@@H](C)CC)C(=O)N[C@@H](CC(C)C)C(=O)O [MAGE2.170D7]
change in HLA-B7 binding compared to wildtype peptide (HLA-B7 (B*0702)): > 100 fold | IFNγ response compared to wildtype peptide [4]: greater than the wildtype peptide

CC[C@H](C)[C@H](NC(=O)[C@H](CCC(=O)O)NC(=O)[C@H](CC(C)C)NC(=O)[C@H](Cc1c[nH]cn1)NC(=O)[C@H](CO)NC(=O)[C@@H](NC(=O)[C@@H]1CCCN1C(=O)[C@@H](N)C(C)C)[C@@H](C)CC)C(=O)N[C@@H](CC(C)C)C(=O)O [MAGE2.170E7]
IFNγ response compared to wildtype peptide [4]: greater than the wildtype peptide

CC[C@H](C)[C@H](NC(=O)CNC(=O)[C@H](CC(C)C)NC(=O)[C@H](Cc1c[nH]cn1)NC(=O)[C@H](CO)NC(=O)[C@@H](NC(=O)[C@@H]1CCCN1C(=O)[C@@H](N)C(C)C)[C@@H](C)CC)C(=O)N[C@@H](CC(C)C)C(=O)O [MAGE2.170G7]
IFNγ response compared to wildtype peptide [4]: greater than the wildtype peptide

CC[C@H](C)[C@H](NC(=O)[C@H](Cc1c[nH]cn1)NC(=O)[C@H](CC(C)C)NC(=O)[C@H](Cc1c[nH]cn1)NC(=O)[C@H](CO)NC(=O)[C@@H](NC(=O)[C@@H]1CCCN1C(=O)[C@@H](N)C(C)C)[C@@H](C)CC)C(=O)N[C@@H](CC(C)C)C(=O)O [MAGE2.170H7]
IFNγ response compared to wildtype peptide [4]: greater than the wildtype peptide

CC[C@H](C)[C@H](NC(=O)[C@H](CCSC)NC(=O)[C@H](CC(C)C)NC(=O)[C@H](Cc1c[nH]cn1)NC(=O)[C@H](CO)NC(=O)[C@@H](NC(=O)[C@@H]1CCCN1C(=O)[C@@H](N)C(C)C)[C@@H](C)CC)C(=O)N[C@@H](CC(C)C)C(=O)O [MAGE2.170M7]
IFNγ response compared to wildtype peptide [4]: greater than the wildtype peptide

CC[C@H](C)[C@H](NC(=O)[C@H](CCC(=O)O)NC(=O)[C@H](C)NC(=O)[C@@H](NC(=O)[C@@H](N)CCCCN)C(C)C)C(=O)N[C@H](C(=O)N[C@@H](Cc1c[nH]cn1)C(=O)N[C@@H](Cc1ccccc1)C(=O)N[C@@H](CC(C)C)C(=O)O)C(C)C [MAGE3.112 I5]
Th2 cytokines: minimum peptide concentration required to induce 50 pg/ml of IL10 or IL15 [1]: NS (NS, cytokine levels not significant (<5 pg/ml)) | peptide dose giving significant IFNγ release (>100 pg/well) [2]: 0.1 ng/mL | Th1 cytokines: minimum peptide concentration required to induce 100 pg/well of IFNγ [2]: 10^−4 μg/ml

CC(C)C[C@H](NC(=O)[C@H](Cc1ccccc1)NC(=O)[C@H](Cc1c[nH]c2ccccc12)NC(=O)[C@@H](NC(=O)[C@H](CC(C)C)NC(=O)[C@H](CCC(=O)O)NC(=O)[C@H](C)NC(=O)[C@@H](NC(=O)[C@@H](N)CCCCN)C(C)C)C(C)C)C(=O)O [MAGE3.112 W7]
peptide dose giving significant IFNγ release (>100 pg/well) [2]: 0.1 ng/mL

CMPPPGTRV (p53.149M2 C1) [analog of p53.149M2]
fold lower concentration than wildtype peptide inducing significant IFNγ production [5]: 10 fold | IFNγ release at suboptimal dose [5]: 100 pg/well | fold lower peptide concentration than wildtype inducing significant IL10 levels (p53.149M2-specific CTL): 100 fold

GLTPPEHLIRV (p53.Mu184 T3, E6) [p53.Mu.184 T3,E6, analog of p53.Mu.184]
immunogenicity relative to wildtype p53mu.184 [5]: enhanced immunogenicity

GLTPPQHLIRV (p53.Mu184 T3) [p53.Mu.184 T3, analog of p53.Mu.184]
immunogenicity relative to wildtype p53mu.184 [5]: enhanced immunogenicity

HBV Pol.455 P7 (peptide)
IC50 (HLA-A2.1 (human)): 267 nM

LLDRDSFEV (p53.261 D3) [predicted analog of p53.261]
peptide concentration giving IFNγ production of 100 pg/well, compared to CTL induced and expanded with wildtype peptide [6]: much lower peptide concentrations | fold lower dose of wildtype peptide to induce 100 pg/well of IFNγ [6]: 1000 fold | response of analog-raised CTL lines to endogenous p53.261 epitope [7]: responded to the endogenous epitope expressed by a Meth A/A2.1K^b tumor cell clone but not to the parental HLA-A2.1-negative Meth A tumor cell line

LLGRDSFEV (p53.261) [reference compound]
wildtype peptide dose inducing 100 pg/well IFNγ ([6]; CTL immunized and restimulated with wildtype peptide): 0.1 to 10 µg/mL | Elispot spots of wildtype peptide-reactive cells [8]: 15 spots/10^6

LLGRDSHEV (p53.261 H7) [predicted analog of p53.261]
peptide concentration giving IFNγ production of 100 pg/well, compared to CTL induced and expanded with wildtype peptide [6]: much lower peptide concentrations | Elispot spots of wildtype peptide-reactive cells [8]: 12 spots/10^6

LLGRDSLEV (p53.261 L7) [predicted analog of p53.261]
peptide concentration giving IFNγ production of 100 pg/well, compared to CTL induced and expanded with wildtype peptide [6]: much lower peptide concentrations | fold lower dose of wildtype peptide to induce 100 pg/well of IFNγ [6]: 10 fold

LLGRGSFEV (p53.261 G5) [predicted analog of p53.261]
peptide concentration giving IFNγ production of 100 pg/well, compared to CTL induced and expanded with wildtype peptide [6]: much lower peptide concentrations

LLHRDSFEV (p53.261 H3) [predicted analog of p53.261]
peptide concentration giving IFNγ production of 100 pg/well, compared to CTL induced and expanded with wildtype peptide [6]: much lower peptide concentrations | fold lower dose of wildtype peptide to induce 100 pg/well of IFNγ [6]: 100 fold | response of analog-raised CTL lines to endogenous p53.261 epitope [7]: responded to the endogenous epitope expressed by a Meth A/A2.1K^b tumor cell clone but not to the parental HLA-A2.1-negative Meth A tumor cell line

SMPPPGPRV (p53.149M2 P7) [analog of p53.149M2]
fold lower concentration than wildtype peptide inducing significant IFNγ production [5]: 10 fold | IFNγ release at suboptimal dose [5]: 100 pg/well

IMMGVLVGV (modifications not checked) [CEA.691 M3]
IC50 (HLA-A2.1 (human), P04439): 27 nM

IMIGVLVGV (modifications not checked) [CEA.691]
IC50 (HLA-A2.1 (human), P04439): 54 nM

YLQLFFGIEV (modifications not checked) [MAGE2.157 F5]
IC50 (HLA-A2.1 (human), P04439): 212 nM

KVAEIVHFL (modifications not checked) [MAGE3.112 I5]
IC50 (HLA-A2.1 (human), P04439): 66 nM

YLQLIFGIEV (modifications not checked) [MAGE2.157 I5]
IC50 (HLA-A2.1 (human), P04439): 476 nM

IMIGHLVGV (modifications not checked) [CEA.691 H5]
IC50 (HLA-A2.1 (human), P04439): 16 nM
